Measured values reported in PubChem BioAssay AID493238 (Broad Institute, 2011).

System: U2OS VEGF mRNA induction, RT-PCR
Experiment: VEGF mRNA induction in U2OS cells, dose response, orthogonal assay for HIF pathway activator project, cell-based, RT-PCR, dry powder, set 2 (AID 493238)
Outline: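 Material: U2OS human osteosarcoma cells | Input: 2,000 U2OS cells per well | Doses: Compound dose series, pinned in duplicate | Incubation: 24 h pre-growth at 37 °C, 24 h compound treatment | Technique: Duplex TaqMan RT-qPCR (FAM VEGF-A, VIC beta-actin), 40 cycles, post-lysis | Controls: DMSO negative control | Replicates: Duplicate compound pinning per dose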

## O=c1[nH]c2ccccc2n1C1CCN(Cc2ccc(O)c3ncccc23)CC1
  AC40: 892 nM
